From PMC5006990 (PLoS ONE, 2016)
Values after ≈ are worked out from the molar mass of the structure shown.

Sequences of proteins named here, by UniProt entry; tags and fusion partners are left off.
UniProt P00374, whole entry: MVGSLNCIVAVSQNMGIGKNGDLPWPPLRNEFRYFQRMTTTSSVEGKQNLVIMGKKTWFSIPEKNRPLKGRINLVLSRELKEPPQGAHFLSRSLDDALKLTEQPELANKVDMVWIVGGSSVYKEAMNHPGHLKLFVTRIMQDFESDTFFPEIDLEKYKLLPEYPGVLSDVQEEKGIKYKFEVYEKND

Experiments:
[1] = target: HuDHFR (Homo sapiens, UniProt P00374); test: Human DHFR enzyme inhibition (NADPH oxidation at 340 nm); type: biochemical; settings: read-out: IC50 (nM) HuDHFR; triplicate, mean ± SD
[2] = tested on: M. smegmatis (parent strain)
[3] = tested on: M. smegmatis (Overexpressing DHFR Strain 1); test: MIC against M. smegmatis overexpressing DHFR, strain 1
[4] = tested on: M. smegmatis (Overexpressing DHFR Strain 2); test: MIC against M. smegmatis overexpressing DHFR, strain 2

SMILES	IC50 [1] [nM]	MIC (µg/mL) M. smegmatis (parent strain) [2] [µg/mL]	MIC (µg/mL) M. smegmatis (Overexpressing DHFR Strain 1) [3] [µg/mL]	MIC (µg/mL) M. smegmatis (Overexpressing DHFR Strain 2) [4] [µg/mL]
CCc1nc(N)nc(N)c1C#CC(C)c1cc(-c2cc[nH]c(=O)c2)ccc1OC (centres unmarked)	625	–	–	–
CCc1nc(N)nc(N)c1C#C[C@@H](C)c1cc2c(c(-c3ccncc3)c1)OCO2	–	1 (≈ 2.58 µM)	64 (≈ 165 µM)	64 (≈ 165 µM)
CCc1nc(N)nc(N)c1C#CC(C)c1ccc(-c2ccncc2)cc1Cl (centres unmarked)	106	–	–	–
CCc1nc(N)nc(N)c1C#CC(C)c1cc(OC)c(-c2ccncc2)c(OC)c1 (centres unmarked)	215	–	–	–
CCc1nc(N)nc(N)c1C#CC(C)c1cc(-c2cnccn2)ccc1OC (centres unmarked)	233	4 (≈ 10.7 µM)	4 (≈ 10.7 µM)	4 (≈ 10.7 µM)
CCc1nc(N)nc(N)c1C#CCc1ccc(-c2ccc(CN)cc2)cc1OC	284	–	–	–
CCc1nc(N)nc(N)c1C#CC(C)c1cc(N2CCNCC2)ccc1OC (centres unmarked)	395	–	–	–
CCc1nc(N)nc(N)c1C#CC(C)c1ccc(Nc2ccncc2)cc1OC (centres unmarked)	290	4 (≈ 10.3 µM)	32 (≈ 82.4 µM)	32 (≈ 82.4 µM)
CCc1nc(N)nc(N)c1C#C[C@H](C)c1cc(-c2cc(C)nc(C)c2)ccc1OC(F)(F)F	168	0.5 (≈ 1.1 µM)	128 (≈ 281 µM)	64 (≈ 141 µM)
CCc1nc(N)nc(N)c1C#CC(C)c1cc2c(c(-c3ccnc(Cl)c3)c1)OCO2 (centres unmarked)	254	–	–	–
CCc1nc(N)nc(N)c1C#CC(C)c1cc(N2CCOCC2)ccc1OC (centres unmarked)	229	–	–	–
CCc1nc(N)nc(N)c1C#C[C@H](C)c1cc(-c2cc(C)nc(C)c2)ccc1Cl	–	0.25 (≈ 0.616 µM)	64 (≈ 158 µM)	32 (≈ 78.8 µM)
CCc1nc(N)nc(N)c1C#CC(C)c1cncc(-c2cncn2C)c1 (centres unmarked)	704	–	–	–
CCc1nc(N)nc(N)c1C#CC(C)c1cc2c(c(-c3ccncc3)c1)OCCO2 (centres unmarked)	290	1 (≈ 2.49 µM)	64 (≈ 159 µM)	32 (≈ 79.7 µM)
CCc1nc(N)nc(N)c1C#CCc1ccc(-c2ccncc2)cc1	1130	–	–	–
CCc1nc(N)nc(N)c1C#CC(C)c1cc(OC)cc(-c2ccccn2)c1 (centres unmarked)	2200	4 (≈ 10.7 µM)	128 (≈ 343 µM)	64 (≈ 171 µM)
